Literature values, collected in publication PMC12648288, “Drastic Impact of Donor Substituents on Xanthenes in the PDT of Glioblastoma” (JACS Au, 2025).

Conditions: known CNS drug; cited from earlier work

CN(C)c1ccc2nc3ccc(=[N+](C)C)cc-3sc2c1 [methylene blue]
BBB penetration: penetrates through the BBB
